Chains of the proteins cited; added tags and fusions are not shown.
UniProt P17812, whole entry: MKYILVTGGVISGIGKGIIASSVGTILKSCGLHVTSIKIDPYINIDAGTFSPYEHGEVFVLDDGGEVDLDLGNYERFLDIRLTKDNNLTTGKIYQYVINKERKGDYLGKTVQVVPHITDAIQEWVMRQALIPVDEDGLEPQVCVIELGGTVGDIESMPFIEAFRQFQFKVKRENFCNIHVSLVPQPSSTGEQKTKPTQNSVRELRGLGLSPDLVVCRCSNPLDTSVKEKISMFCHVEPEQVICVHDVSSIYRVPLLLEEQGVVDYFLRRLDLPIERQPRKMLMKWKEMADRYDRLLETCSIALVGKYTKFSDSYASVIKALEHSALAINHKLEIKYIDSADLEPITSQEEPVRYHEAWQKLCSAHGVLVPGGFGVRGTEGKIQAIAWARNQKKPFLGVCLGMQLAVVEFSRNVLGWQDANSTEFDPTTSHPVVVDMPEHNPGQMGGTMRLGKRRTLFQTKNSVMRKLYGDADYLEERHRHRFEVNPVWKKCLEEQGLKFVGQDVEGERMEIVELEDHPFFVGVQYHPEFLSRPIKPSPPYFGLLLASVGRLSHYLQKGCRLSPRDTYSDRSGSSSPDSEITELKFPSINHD

According to patent US11655246B2, “Aminothiazole compounds as inhibitors of CTPS1” (STEP PHARMA S.A.S., priority 2017, dated 2023):

Molecular target: human CTPS1 (Homo sapiens, UniProt P17812)
Experiment: Human CTPS1 enzyme inhibition (ADP-Glo Max assay)
Conditions: read-out: CTPS1 (Human CTPS1 Enzyme Inhibition data grouped by potency range), Table 17, 25° C.

Structure (SMILES) | pIC50
CCC(C(=O)Nc1ccc(-c2cccnc2)cn1)c1csc(NS(=O)(=O)C2CC2)n1 (centres unmarked) | 6.00 to 7.00
CC(C)(C(=O)Nc1ccc(-c2cccnc2C(F)(F)F)cc1)c1csc(NS(=O)(=O)C2CC2)n1 | 5.00 to 6.00

pIC50: −log10 of the molar value.
